The test has as its target Kelch domain of KEAP1 (Homo sapiens (Human), UniProt Q14145). In words: Fluorescence anisotropy assay of KEAP1-NRF2 interaction inhibition. It counts as binding.

Chains of the proteins cited; added tags and fusions are not shown. Residues count along the entry.
UniProt Q14145, 321-609 limits assumed: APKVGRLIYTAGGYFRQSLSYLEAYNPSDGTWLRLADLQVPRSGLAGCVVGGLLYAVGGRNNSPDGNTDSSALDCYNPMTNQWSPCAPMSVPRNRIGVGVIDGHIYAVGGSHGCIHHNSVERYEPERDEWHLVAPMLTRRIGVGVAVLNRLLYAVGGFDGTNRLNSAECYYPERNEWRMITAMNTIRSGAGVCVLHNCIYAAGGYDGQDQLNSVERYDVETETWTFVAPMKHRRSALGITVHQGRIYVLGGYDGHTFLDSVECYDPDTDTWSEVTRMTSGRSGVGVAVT

The IC50 is the midpoint of a concentration-inhibition curve. A low value points to higher potency. With `COc1ccc(S(=O)(=O)Nc2cnc(N3C[C@H](c4ccccc4)C[C@H]3C(=O)O)c3ccccc23)cc1`, the concentration for half-maximal inhibition (IC50) (Table C, unit inferred) worked out at 938 nM; the IC50 (fluorescent NRF2 peptide and Kelch domain of KEAP1, fluorescence anisotropy) stood at 938 nM.

The record behind these values is patent US11396496B2, “1,4-substituted isoquinoline inhibitors of KEAP1/NRF2 protein-protein interaction” (THE BOARD OF TRUSTEES OF THE UNIVERSITY OF ILLINOIS, priority 2018, dated 2022).
